Measured values taken from US7709454B2, “Methods and compositions for inhibiting tumorigenesis” (New York University, priority 1997, dated 2010).

Key:
[1] = tested on: mouse embryonic fibroblasts (MEF); details: control
Description: (§1) WM-115, SK-MEL-2 and COS7 cell lines (ATCC) were grown according to the specifications of the provider. The primary Me-3 melanoma (Stecca, B. et al. Melanocyte proliferation and melanoma growth, recurrence and metastasis require sustained SONIC HEDGEHOG-GLI signaling. Submitted. (2006)) was grown in E-MEM with 10% FBS (Hyclone), 1 mM sodium pyruvate (GIBCO) and 1 ng/ml EGF (GIBCO). Proliferating human melanocytes from foreskin (Promocell) were grown in M2 media (Promocell). Melanomas from ±6 month-old Tyr→NRAS^Q61K; Ink4a^−/− mice on a light coat color Dct^−/− background^13 were collected from the skin and lymph nodes. Tumors were dissociated and grown in E-MEM with 10% FBS, 1 mM sodium pyruvate (GIBCO) and 1 ng/ml EGF (GIBCO). Mouse embryonic fibroblasts (MEFs) were prepared from E14.5 Swiss Webster mouse embryos and grown in DMEM with 10% FBS.
(§2) Forskolin (FK) and 1,9-dideoxyforskolin (ddFK; Sigma) were used at 50 μM. MEK-1 (U0126; Promega), and AKT (SH6; Alexis corporation) inhibitors were used at 1 and 40 μM, respectively, dissolved in DMSO. U0126 and SH6 were used for 1 h, 48 h post-transfection. Leptomycin B (LMB; Sigma) was used at 5 nM for 6 h, 48 h post-transfection. BrdU (Sigma) was pulsed at 4 μg/ml for 2 h before fixation followed by immunodetection with anti-BrdU antibodies (BD Biosciences). The number of viable cells was assessed by Trypan blue exclusion (Promega). […]

[2] = tested on: melanoma primary cultures and cell lines; details: 48 h cyclopamine treatment; fraction of cultures tested
Description: (§3) Commercial N-SHH (R&D Systems) was used at 100 nM. 5E1 anti-SHH blocking antibody (Hybridoma Bank, University of Iowa) was used at 10 μg/ml. Forskolin (FK) and 1,9-dideoxyforskolin (ddFK; Sigma) were used at 50 μM. […] MEK-1 (U0126; Promega), EGFR (AG1478; Biosource) and AKT (SH6; Alexis corporation) inhibitors were used at 1, 10, and 40 μM, respectively, dissolved in DMSO. Drug treatments were for 48 h in 2.5% serum. BrdU (Sigma) was pulsed at 4 μg/ml for 2 h before fixation followed by immunodetection with anti-BrdU antibodies (BD Biosciences). The number of viable cells was assessed by Trypan blue exclusion (Promega).

[3] = tested on: Proliferating melanocytes from human foreskin; assay: BrdU incorporation in proliferating melanocytes; assay type: cell-based; details: cyclopamine over tomatidine
Description: Human foreskin melanocytes (Promocell) were grown in serum-free M2 medium (Promocell). WM-115, SK-MEL-2, SK-MEL-5, MeWo and COS7 cell lines (ATCC) were grown as specified. Tumors were chopped, incubated in E-MEM (Sigma) containing collagenase A (300 U/ml, Worthington) and hyaluronidase (100 U/ml, Sigma), mechanically dissociated and plated in E-MEM with 10% FBS, 1 mM sodium pyruvate (GIBCO) and 1 ng/ml EGF (GIBCO). […] All melanoma samples and BCC were obtained following approved protocols.
as §3

[4] = tested on: HRAS (V12)-transfected WM-115, SK-MEL-2 and SK-MEL-5; assay: oncogenic HRAS-transfection enhanced BrdU incorporation, treatment with inhibitors; assay type: cell-based, human; details: 48 h treatment
Description: as §3

[5] = tested on: NRAS^Q61K mouse melanoma primary cultures; assay: BrdU incorporation in primary cultures of Tyr-NRAS^Q61K; Ink4a−/− mouse melanomas; assay type: cell-based; details: 48 h
Description: as §1, §2

[6] = tested on: MeWo/LacZ lung metastases; details: IP 10 mg/kg/twice a day for 45 days, started 2 weeks after i.v. cells

CC1=C2C[C@H]3[C@@H](CC=C4C[C@@H](O)CC[C@@]43C)[C@@H]2CC[C@]12O[C@@H]1C[C@H](C)CN[C@H]1[C@H]2C [cyclopamine]
proliferation of mouse embryonic fibroblasts [1]: did not affect | cultures with increase in activated Caspase-3 immunoreactivity [2]: ⅗ | decrease in proliferation [3]: 2 fold | effect on oncogenic RAS-enhanced proliferation [4]: reversed | proliferation of primary cultures ([5]; 5 μM): one from each mouse also responded | proliferation of all 12 primary cultures ([5]; 10 μM): inhibited | cyclopamine-treated mice without a single blue cell in their lungs [6]: 6/7
